Data on two compounds can be found in patent US20250313572A1, “MACROCYCLIC MCL-1 INHIBITORS AND METHODS OF USE” (AbbVie Inc., priority 2017, published 2025).

Sequences of proteins named here, by UniProt entry; tags and fusion partners are left off.
UniProt Q07820, whole entry: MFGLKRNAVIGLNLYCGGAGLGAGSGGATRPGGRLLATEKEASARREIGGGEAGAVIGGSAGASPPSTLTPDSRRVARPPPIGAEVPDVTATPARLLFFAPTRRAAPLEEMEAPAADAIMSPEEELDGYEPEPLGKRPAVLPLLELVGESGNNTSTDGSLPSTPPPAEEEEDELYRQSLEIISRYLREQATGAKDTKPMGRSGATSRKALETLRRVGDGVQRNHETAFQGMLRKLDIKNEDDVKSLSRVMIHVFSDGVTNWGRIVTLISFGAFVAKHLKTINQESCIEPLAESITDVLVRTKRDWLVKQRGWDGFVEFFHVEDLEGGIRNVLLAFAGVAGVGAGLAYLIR

The structures appear in SMILES notation. Read-outs that look alike come from different tables or passages of the source.

Test [1] has as its target GST-MCL-1 (Homo sapiens, UniProt Q07820). Description: TR-FRET MCL-1 binding assay (competition with probe F-Bak). Here is the method:
Tb-anti-GST antibody was purchased from Invitrogen (Catalog No. PV4216).
For the assay, an acoustic dispenser was used to prepare dilution series from 10 mM test compounds in 100% DMSO and directly transfer 160 nL into low volume 384-well assay plates. 8 μL of a protein/probe/antibody mix was then added to each well resulting in final concentrations listed below: • Test compound: 11 three-fold dilutions beginning at 25 μM
The samples were then mixed on a shaker for 1 minute and incubated for an additional 2 hours at room temperature. For each assay plate, a probe/antibody and protein/antibody/probe mixture were included as a negative and a positive control, respectively. Fluorescence was measured on the Envision (Perkin Elmer) using a 340/35 nm excitation filter and 520/525 (F-Bak) and 495/510 nm (Tb-labeled anti-his antibody) emission filters. Dissociation constants (Ki) were determined using Wang's equation (Wang, 1995, FEBS Lett. 360:111-114). The TR-FRET assay can be performed in the presence of varying concentrations of human serum (HS) or fetal bovine serum (FBS). Compounds were tested both without HS and in the presence of 10% HS.
In general terms: TR-FRET usually uses a lanthanide donor and a delayed reading to cut background.

The subject of test [2] is AMO-1 human multiple myeloma tumor cell line. Kind of test: AMO-1 cell viability assay (CellTiter-Glo, 24 hours). Format: cell-based. The source says:
(§1) The in vitro efficacy of exemplary MCL-1 inhibitors can be determined in cell-based killing assays using a variety of cell lines and mouse tumor models. For example, their activity on cell viability can be assessed on a panel of cultured tumorigenic and non-tumorigenic cell lines, as well as primary mouse or human cell populations. MCL-1 inhibitory activity of exemplary MCL-1 inhibitors was confirmed in a cell viability assay with AMO-1 and NCI-H929 human multiple myeloma tumor cell lines.
(§2) In one exemplary set of conditions, NCI-H929 or AMO-1 (ATCC, Manassas, VA) were plated 4,000 cells per well in 384-well tissue culture plates (Corning, Corning, NY) in a total volume of 25 μL RPMI tissue culture medium supplemented with 10% fetal bovine serum (Sigma-Aldrich, St. Louis, MO) and treated with a 3-fold serial dilution of the compounds of interest with a Labcyte Echo from a final concentration of 10 µM to 0.0005 μM. Each concentration was tested in duplicate at least 3 independent times. A luminescent signal proportional to the number of viable cells following 24 hours of compound treatment was determined using the CellTiter-Glo® Luminescent Cell Viability Assay according to the manufacturer's recommendations (Promega Corp., Madison, WI). The plates were read in a Perkin Elmer Envision using a Luminescence protocol. […]
A general note: ATP-based viability assays read luminescence as a measure of living cells.

The test system of test [3] is NCI-H929 human multiple myeloma tumor cell line. Description: NCI-H929 cell viability assay (CellTiter-Glo, 24 hours).
Description: as §1, §2

For the compound `COCCOCCOCCOC[C@]1(F)CC[C@H](c2nccc(COc3ccc4cc3C[C@H](C(=O)O)Oc3ncnc5sc(-c6ccc(F)cc6)c(c35)-c3c(C)c(Cl)c(c(Cl)c3C)O[C@H](CN3CCN(C)CC3)CO4)n2)CC1`, the inhibitory constant (Ki) in test [1] (read-out: MCL-1 Binding Ki (nM, 10% HS), in the presence of 10% HS (human serum)) is 0.071 nM; in test [1] (read-out: MCL-1 Binding Ki, without HS), 0.011 nM. Further, the IC50 in test [2] (read-out: AMO-1 Viability IC50 (μM, 10% FBS), 24 hours of compound treatment) was found to be 0.000192 µM; in test [3] (read-out: H929 Viability IC50 (μM, 10% FBS), 24 hours of compound treatment), 0.000198 µM.
On to `Cc1c(Cl)c2c(Cl)c(C)c1-c1c(-c3ccc(F)cc3)sc3ncnc(c13)O[C@@H](C(=O)O)Cc1cc(ccc1OCc1ccnc(C3(COCCOC[C@H]4COCCO4)CCCC3)n1)OC[C@@H](CN1CCN(C)CC1)O2`, for which the IC50 is 0.000161 µM in test [2] (read-out: AMO-1 Viability IC50 (μM, 10% FBS), 24 hours of compound treatment, tested form: TFA) and 0.000687 µM in test [3] (read-out: H929 Viability IC50 (μM, 10% FBS), 24 hours of compound treatment, tested form: TFA).

As usually defined, the Ki is a measure of affinity in units of concentration, obtained from inhibition or displacement. As usually defined, the IC50 is the point on the concentration scale where inhibition reaches its midpoint.
